Like-named read-outs stand apart in the source and are kept apart here.
Experiments:
human Factor XIa = human Factor XIa (Homo sapiens (Human), UniProt P03951); assay: Factor XIa Assay; assay type: biochemical; settings: read-out: FXIa Ki
Human plasma kallikrein = Human plasma kallikrein (Homo sapiens (Human), UniProt P03952); assay: Kallikrein Assay; settings: read-out: Kallikrein, purified Human plasma kallikrein 0.5 nM, Acetyl-K-P-R-AFC, pH 7.4, Ki from IC50 by Cheng Prusoff

Amino acid sequences for entries named in this document (tags omitted). Residues count along the entry.
UniProt P03951, 388-625 limits assumed: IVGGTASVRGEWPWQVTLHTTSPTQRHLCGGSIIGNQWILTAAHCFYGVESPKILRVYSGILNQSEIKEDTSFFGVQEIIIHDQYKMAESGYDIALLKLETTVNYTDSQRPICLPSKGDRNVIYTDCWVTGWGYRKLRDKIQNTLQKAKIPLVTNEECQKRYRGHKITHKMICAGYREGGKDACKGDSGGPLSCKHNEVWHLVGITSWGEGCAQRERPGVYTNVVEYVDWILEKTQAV
UniProt P03951, 19-387 partner limits assumed: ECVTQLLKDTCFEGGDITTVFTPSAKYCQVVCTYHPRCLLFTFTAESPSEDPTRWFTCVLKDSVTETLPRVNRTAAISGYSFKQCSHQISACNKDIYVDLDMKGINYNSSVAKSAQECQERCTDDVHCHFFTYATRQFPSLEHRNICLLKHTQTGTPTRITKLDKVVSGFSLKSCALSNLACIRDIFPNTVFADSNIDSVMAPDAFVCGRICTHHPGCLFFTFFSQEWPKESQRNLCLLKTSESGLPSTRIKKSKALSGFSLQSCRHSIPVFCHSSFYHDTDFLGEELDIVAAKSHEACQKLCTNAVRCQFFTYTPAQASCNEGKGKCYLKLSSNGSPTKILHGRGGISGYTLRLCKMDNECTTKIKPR
UniProt P03952, 391-638 limits assumed: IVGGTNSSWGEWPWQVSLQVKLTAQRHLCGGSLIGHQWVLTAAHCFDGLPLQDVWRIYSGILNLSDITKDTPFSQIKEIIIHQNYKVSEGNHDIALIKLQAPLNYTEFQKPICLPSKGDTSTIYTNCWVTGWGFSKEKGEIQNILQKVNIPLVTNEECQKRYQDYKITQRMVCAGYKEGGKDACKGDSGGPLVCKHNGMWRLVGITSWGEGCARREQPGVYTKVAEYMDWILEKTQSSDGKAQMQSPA
UniProt P03952, 20-390 partner limits assumed: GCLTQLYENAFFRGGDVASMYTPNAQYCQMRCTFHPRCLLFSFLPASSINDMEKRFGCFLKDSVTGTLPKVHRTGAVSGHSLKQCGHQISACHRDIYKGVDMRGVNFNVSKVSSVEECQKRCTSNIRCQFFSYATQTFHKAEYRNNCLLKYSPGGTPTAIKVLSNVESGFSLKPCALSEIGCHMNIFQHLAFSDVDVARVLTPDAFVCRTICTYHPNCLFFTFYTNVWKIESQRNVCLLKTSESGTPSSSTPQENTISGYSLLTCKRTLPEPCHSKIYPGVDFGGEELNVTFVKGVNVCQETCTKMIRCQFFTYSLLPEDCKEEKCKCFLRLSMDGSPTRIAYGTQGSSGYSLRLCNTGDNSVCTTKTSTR

Row | Ki (human Factor XIa) [nM] | Ki (Human plasma kallikrein) [nM] | Structure (SMILES) | Ki (human Factor XIa; tested form: TFA) [nM] | Ki (Human plasma kallikrein; tested form: TFA) [nM]
1 | 5000 | – | Nc1ncc(C(=O)N[C@@H](Cc2ccccc2)C(=O)N2CCC3(C2)OC(=O)Nc2ccc(Cl)cc23)cn1 (some centres unmarked) | – | –
2 | – | – | CNc1cc(C(=O)N[C@@H](CC2CC2)C(=O)N2CCC[C@@]3(C2)OC(=O)Nc2ccc(Cl)c(F)c23)ccn1 | 9.11 | < 1.36
3 | 304 | – | Cc1[nH]c2ccc(C(=O)N[C@@H](Cc3ccccc3)C(=O)N3CCC[C@@]4(C3)OC(=O)Nc3ccc(Cl)cc34)cc2c1C(=O)OC(C)(C)C | – | –
4 | 33.7 | – | COC(=O)NC1CCC(C(=O)N[C@@H](Cc2ccccc2)C(=O)N2CCC[C@@]3(C2)OC(=O)Nc2ccc(Cl)cc23)CC1 (some centres unmarked) | – | –
5 | 45.5 | 0.65 | O=C1Nc2ccc(Cl)c(F)c2[C@@]2(CCCN(C(=O)[C@H](Cc3cccc(F)c3)NC(=O)c3cccc(-c4nn[nH]n4)c3)C2)O1 | – | –
6 | – | – | Nc1ccc(C(=O)N[C@@H](CC2CC2)C(=O)N2CCC[C@@]3(C2)OC(=O)Nc2ccc(Cl)c(F)c23)cn1 | 14 | 1.79
7 | 65.3 | – | O=C1Nc2ccc(Cl)c(F)c2[C@@]2(CCCN(C(=O)[C@H](Cc3ccccc3)NC(=O)c3cc(-c4ncc[nH]4)cs3)C2)O1 | – | –
8 | 661 | – | O=C1Nc2ccc(Cl)cc2[C@@]2(CCCN(C(=O)[C@H](Cc3ccccc3)NC(=O)c3cccc(N4CCOCC4=O)c3)C2)O1 | – | –
9 | 0.39 | 0.94 | O=C1CC(=O)c2cc(C(=O)N[C@@H](CC(=O)N3CCCC3)C(=O)N3CCC[C@@]4(C3)OC(=O)Nc3ccc(Cl)c(F)c34)ccc2N1 | – | –
10 | 44.7 | – | O=C1Nc2ccc(Cl)cc2[C@@]2(CCN(C(=O)[C@H](Cc3ccccc3)NC(=O)c3cccc(C(=O)O)c3)C2)O1 | – | –
